This passage reports IC50 results from ChEMBL document CHEMBL1129461 (J Med Chem, 1996).

The assay addresses T1, Protein kinase C epsilon type (Homo sapiens, UniProt Q02156).
T1 sequence (Q02156 whole entry): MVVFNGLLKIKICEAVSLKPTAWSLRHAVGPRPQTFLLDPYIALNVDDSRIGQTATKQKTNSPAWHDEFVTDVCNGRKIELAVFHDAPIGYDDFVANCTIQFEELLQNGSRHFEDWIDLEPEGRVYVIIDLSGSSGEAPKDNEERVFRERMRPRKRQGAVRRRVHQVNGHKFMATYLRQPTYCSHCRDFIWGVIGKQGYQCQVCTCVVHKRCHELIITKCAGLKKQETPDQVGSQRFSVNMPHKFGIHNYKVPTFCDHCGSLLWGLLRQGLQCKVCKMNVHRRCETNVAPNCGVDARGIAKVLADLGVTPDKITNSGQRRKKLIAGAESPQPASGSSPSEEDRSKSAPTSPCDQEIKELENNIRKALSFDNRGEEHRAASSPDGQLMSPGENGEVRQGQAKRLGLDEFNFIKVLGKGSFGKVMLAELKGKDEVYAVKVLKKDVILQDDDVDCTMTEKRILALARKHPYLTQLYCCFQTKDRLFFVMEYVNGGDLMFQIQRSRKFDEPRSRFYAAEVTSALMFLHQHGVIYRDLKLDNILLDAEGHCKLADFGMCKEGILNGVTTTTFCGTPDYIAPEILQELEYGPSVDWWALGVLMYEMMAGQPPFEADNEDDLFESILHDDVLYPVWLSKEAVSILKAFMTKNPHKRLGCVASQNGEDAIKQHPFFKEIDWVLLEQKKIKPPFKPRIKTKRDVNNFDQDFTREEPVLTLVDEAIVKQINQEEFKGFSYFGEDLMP
Kind of assay: Evaluated against recombinant human Protein kinase C epsilon. Summed up: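 Recombinant human PKC isozymes expressed in SF9 cells via baculovirus, partly purified (50–90%). 32P transfer from 30 μM [32P]ATP to 200 μg/mL histone IIIS in 20 mM Hepes pH 7.5, 10 mM MgCl2, EGTA, CaCl2, phosphatidylserine, and diacylglycerol at the isozyme-dependent level giving half-maximal activation. 10 min at 30 °C, TCA stop, filter counting. No-lipid background subtracted.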

Structures are written as SMILES.

`O=C(NC1CNCCCC1OC(=O)c1cc(O)c(C(=O)c2c(O)cccc2C(=O)O)c(O)c1)c1ccc(O)cc1` (racemic): the half-maximal inhibitory concentration (IC50) was 0.038 µM.
